This test concerns the target Adenosine receptor A1 (Rattus norvegicus, UniProt P25099). Briefly: Tested for the displacement [3H]PIA from Adenosine A1 receptor in rat brain membrane. Type of test: cell membranes.

The chains behind the UniProt entries cited, without tags or fusion partners.
UniProt P25099, whole entry: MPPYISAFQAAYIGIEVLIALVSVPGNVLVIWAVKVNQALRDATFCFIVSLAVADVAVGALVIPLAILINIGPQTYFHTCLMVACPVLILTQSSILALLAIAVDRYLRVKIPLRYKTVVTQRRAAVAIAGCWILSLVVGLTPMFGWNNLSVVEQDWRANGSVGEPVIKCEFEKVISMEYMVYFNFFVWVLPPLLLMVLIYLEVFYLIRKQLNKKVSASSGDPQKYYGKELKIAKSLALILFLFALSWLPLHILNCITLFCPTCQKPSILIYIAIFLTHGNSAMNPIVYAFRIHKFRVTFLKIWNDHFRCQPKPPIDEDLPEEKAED

`O=c1c(-c2ccc(O)cc2)coc2cc(O)cc(O)c12` [GENISTEIN] gave a Ki of 5 µM. That is a single-digit micromolar value. The figure for `Nc1nc2ccc(Cl)cc2c2nc(-c3ccco3)nn12` [CGS-15943] is 0.27 µM.
